Data taken from PubChem BioAssay AID651636 (Sanford-Burnham Center for Chemical Genomics, 2012).
The list shows a part of the results, in another mix than the full data. Calls of active or inactive are those of the source. No stated cut-off is given here; in the data, active means inhibition above about 38%; inactive means the rest.

Protein sequences, listed by entry. Tags and fused reporters are not part of them.
UniProt P32249, whole entry, looked up: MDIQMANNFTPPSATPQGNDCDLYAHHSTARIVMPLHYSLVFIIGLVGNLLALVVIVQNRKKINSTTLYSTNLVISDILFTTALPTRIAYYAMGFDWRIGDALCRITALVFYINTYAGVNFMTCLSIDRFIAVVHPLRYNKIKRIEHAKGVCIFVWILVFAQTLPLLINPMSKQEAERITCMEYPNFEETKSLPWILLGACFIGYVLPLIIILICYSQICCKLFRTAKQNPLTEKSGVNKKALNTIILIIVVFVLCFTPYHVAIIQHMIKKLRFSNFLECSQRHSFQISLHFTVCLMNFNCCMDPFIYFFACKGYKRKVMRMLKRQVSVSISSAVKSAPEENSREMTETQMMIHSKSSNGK

Each compound was assayed against G-protein coupled receptor 183 (Homo sapiens) (UniProt P32249) (assay: EBI2 receptor antagonists, beta-arrestin recruitment, primary screen, cell-based, luminescence, 7a,25-OHC stimulation, uHTS (AID 651636;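 further: enzyme fragment complementation signal reports receptor beta-arrestin coupling in cells; 0% = agonist plus DMSO wells and 100% = wells without agonist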)). Details: 7a,25-OHC stimulated, at 5 µM, stronger effect = higher value.
For `C[C@@H]1C=CCP(=O)(Oc2ccccc2)O1` (some centres not stated), the inhibition was inactive: -5.2%.
`Cc1ccccc1CN(C)C(=O)COC(=O)C(O)(c1ccccc1)c1ccccc1` was tested, and the inhibition was inactive: -1.54%.
`CCc1cc(O)c([N+](=O)[O-])c(C)c1[N+](=O)[O-]` was tested, and the inhibition was inactive: -4.22%.
In the case of `CC(C)(C)C(=O)NC(Sc1ccccc1)C(Cl)(Cl)Cl` (configuration not stated), the inhibition is reported as inactive: 7.14%.
In the case of `CCOc1ccc(C2=NCC(CBr)S2)cc1` (configuration not stated), the inhibition is reported as inactive: 1.24%.
For `O=P1(Nc2nc3ccc(Cl)cc3s2)COc2ccccc2O1` (configuration not stated), the inhibition was inactive: -1.68%.
In the case of `c1nnnn1CCn1cnnn1`, the inhibition is reported as inactive: 1.69%.
`O=P(Nc1nccs1)(c1ccccc1)c1ccccc1` was tested, and the inhibition was inactive: -1.27%.
`CC(C)C(=O)NC(Sc1ccccc1)C(Cl)(Cl)Cl` (configuration not stated) was tested, and the inhibition was inactive: -5.02%.
`C(Cc1nn[nH]n1)Cc1nn[nH]n1` was tested, and the inhibition was inactive: -2.86%.
For `Nc1ccc([As](=O)(O)c2ccc([N+](=O)[O-])cc2)cc1`, the inhibition was inactive: -0.195%.
In the case of `O=C(OC1CN2CCC1CC2)c1cccc(Cl)c1` (configuration not stated), the inhibition is reported as inactive: -16%.
For `CC(=O)NC(SC(=S)N(C)C)C(Cl)(Cl)Cl` (configuration not stated), the inhibition was inactive: 1.98%.
`O=[N+]([O-])c1ncn(CCn2cnc([N+](=O)[O-])n2)n1` was tested, and the inhibition was inactive: -22.5%.
`O=[N+]([O-])c1ccc(O)c(/C=N/Nc2ccc([N+](=O)[O-])cc2[N+](=O)[O-])c1` was tested, and the inhibition was inactive: -2.99%.
`O=[As](O)(c1ccccc1)c1ccc(O)cc1` was tested, and the inhibition was inactive: -2.08%.
With `C[C@H]1OP(=O)(Oc2ccccc2)[C@H](O)[C@H](O)[C@H]1N=[N+]=[N-]` (some centres not stated) the inhibition was inactive: -9.39%.
For `O=P(Nc1nc2ccccc2s1)(c1ccccc1)c1ccccc1`, the inhibition was inactive: 4.6%.
For `COc1ccc(N)c([N+](=O)[O-])c1[N+](=O)[O-]`, the inhibition was inactive: -0.754%.
In the case of `Nc1ccc(CCCCOc2ccccc2)cc1`, the inhibition is reported as inactive: 16.3%.
For `CN(C)C1(CNC(=O)c2ccc(Cl)c(S(N)(=O)=O)c2)CCCCC1`, the inhibition was inactive: -13.4%.
For `O=P(Nc1ccccn1)(c1ccc(Br)cc1)c1ccc(Br)cc1`, the inhibition was inactive: 5.11%.
